Values quoted from earlier work as cited in paper PMC4106900 (Journal of medicinal chemistry, 2012).

Test system: S1R
Settings: cited from earlier work

For `CCCc1ccc2c(c1)sc(=O)n2CCN1CCCCCC1` [compound 9], the S2R/S1R selectivity is listed as > 1000.
